Screening data as filed in PubChem.
B2AR arrestin = beta2AR (human) beta-arrestin recruitment activity. P07550. beta-arrestin recruitment to beta2AR, cell-based reporter. Potency, µM (top dose mostly 46.1 µM), most hits filed as activators. actives 0.02% (n = 330,000). AID 492947; further: nearly all actives have a fitted effect of over 65% in size
Nrf2 block = blocks Nrf2 signaling. AID 504444. actives 2.1% (n = 360,000). Potency, µM (series often up to 46 µM), most hits filed as inhibitors. A549 ARE-Fluc reporter, luciferase luminescence, 18-24 h; further: nearly all actives have a fitted effect of over 60% in size
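Nrf2 activity is the BugLite luminescence, read 15 min after reagent at room temperature, following CellTiter-Fluor cytotoxicity readout (30 min, 37C). Compound titrations were applied for 18-24 h to 5000 A549 ARE_Fluc cells/well in 5% FBS OPTI-MEM.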
Nrf2 activator = activators of Nrf2 (ARE) signaling; AID 624171; AREc32 ARE-luciferase reporter (MCF7-derived line), luminescence, 24 h; Potency, µM (top dose mostly 46.1 µM), hits mostly activators; actives 0.31% (n = 410,000); further: nearly all actives have a fitted effect of over 65% in size
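Luciferase luminescence (Steady-Glo, 30 min at room temperature) served as the read-out of ARE activation in AREc32 cells treated with compounds for 24 hr at 37 deg C.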
A549 tox = A549 cytotoxicity, counter-screen for Nrf2 inhibitors; Potency, µM (highest dose often 46 µM), actives largely listed as inhibitors; actives 0.16% (n = 390,000); A549 ARE-Fluc cells, CellTiter-Fluor viability, 18-24 h
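A549 ARE_Fluc cells in 5% FBS OPTI-MEM were exposed to compounds in concentration-response for 18-24 h at 37 deg C. Viability was read by CellTiter-Fluor fluorescence (Ex 405/Em 525) after 30 min, before the luciferase read.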
miR-21 reporter = raises the signal of a miR-21 reporter | Potency, µM (doses to about 38.3 µM) | HeLa miR-21 FLuc reporter, luciferase, 48 h | AID 2288 | 340,000 tested, under 10 active; active = well fitted rising curve with a large enough effect; inconclusive = small, poorly fitted or top-dose-only effect; inactive = no such curve, though single readings can be large or run the other way;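 also: miR-21 action dims this reporter so a rising signal means less miR-21 action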
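HeLa cells stably expressing CMV-driven firefly luciferase with a downstream miR-21 binding sequence, endogenously expressing miR-21, were treated with titrations (up to about 40uM final) for 48 hours at 37 degree Celsius. Luciferase luminescence was read after lysis.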
Numbers stand for hits; n = inactive; u = inconclusive; x = not tested or not shown; ! = repeats disagree; [ ] = another dose, or the depositor's remark. A selection: hits, their analogues and other compounds. The true share with any hit is near 2.2%. Unless noted, the call rests on the fitted dose curve; in most records, active means well fitted curve in the direction sought with a large enough effect; inconclusive means small, poorly fitted or top-dose-only effect, or another doubt; inactive means no such curve, though single readings can be large; an effect the other way counts as inactive or inconclusive.

SMILES	B2AR arrestin	Nrf2 block	Nrf2 activator	A549 tox	miR-21 reporter
CCC(C)C(=O)Nc1nc(C)c(-c2csc(Nc3ccc(Cl)cc3)n2)s1 (centres undefined)	n	16.4µM	n	u	n
Cc1ccc(Cl)cc1Nc1nc(-c2sc(NC(=O)C(C)(C)C)nc2C)cs1	n	11.6µM	n	n	n
COc1cc(NC(=O)CC2C(=O)N(c3cccc(C)c3)C(=O)N2Cc2ccco2)cc(OC)c1 (centres undefined)	x	n	n	n	n
N#Cc1cccc(NS(=O)(=O)c2ccc3c(c2)CCC(=O)N3)c1	x	n	x	n	x
CC(=O)N/C(=C\c1ccccc1)C(=O)OCc1cccc(S(=O)(=O)N(C)C)c1	n	23.1µM	n	n	n
CSc1nc(N)n2nc(-c3ccccc3)cc2n1	n	u	7.94µM	n	n
Cc1ccc(N(Cc2cccs2)C(=O)c2ccc(OC(C)C)cc2)cc1	x	u	n	n	u
S=C(NN=C(c1ccccc1)c1ccccn1)N(Cc1ccccn1)Cc1ccccn1	x	u	n	11.6µM	x
CC(=NNC(=S)N(Cc1ccccn1)Cc1ccccn1)c1cnccn1	x	u	n	u	x
COc1cccc(C2c3c(ncn(-c4ccncc4)c3=N)Oc3ccc4ccccc4c32)c1 (centres undefined)	x	n	x	n	x
CCN(CC)c1nc2c(S(=O)(=O)c3cccc(Cl)c3)nnn2c2ccsc12	x	u	n	n	n
CC1=C(Nc2ccc(C(=O)O)cc2)C(=O)c2ccccc2C1=O	n	23.1µM	n	u	n
COC1=C(Nc2ccc(C)cc2)C(=O)c2ccccc2C1=O	n	16.4µM	n	u	n
O=C(Nc1ccc2oc(-c3cccnc3)nc2c1)c1ccc(-c2ccccc2)o1	x	13µM	n	n	u
O=C(Cc1ccccc1)Nc1ccc2oc(-c3cccnc3)nc2c1	n	n	n	n	n
O=C(Nc1ccc2oc(-c3cccnc3)nc2c1)c1ccc(-c2ccccc2OC(F)(F)F)o1	x	0.651µM	n	n	n
O=C(Nc1ccc2oc(-c3cccnc3)nc2c1)c1ccc(-c2ccc(OC(F)(F)F)cc2)o1	x	n	n	n	n
Cc1c(C(=O)NCc2ccco2)oc2ccccc12	n	n	14.1µM	n	n
O=c1cc(NCc2ccco2)c2ccccc2o1	n	n	12.6µM	n	n
O=C(Nc1ccc2nc(SCCOc3ccccc3)sc2c1)c1cccs1	x	u	n	n	n
CCN(CC)C(=O)c1ccc2c(c1)N(Cc1ccc(C(F)(F)F)cc1)C(=O)c1ccccc1S2	x	11.6µM	n	n	n
COCCNC(=O)c1ccc2c(c1)N(Cc1ccc(C(F)(F)F)cc1)C(=O)c1ccccc1S2	x	u	n	n	n
c1ccc(N=Nc2cn[nH]c2-c2ccco2)cc1	n	n	10µM	n	n
Cc1cccc(N=Nc2cn[nH]c2-c2ccco2)c1	n	n	u	n	n
O=C(CN1c2ccccc2Sc2ccccc21)NNC(=O)Nc1ccc(Cl)c(Cl)c1	n	u	n	n	n
SMILES	B2AR arrestin	Nrf2 block	Nrf2 activator	A549 tox	miR-21 reporter
O=C(CN1c2ccccc2Sc2ccccc21)NNC(=O)Nc1ccc(Cl)cc1	n	18.4µM	n	u	n
CC(C)Cn1nc(NC(=O)c2cccs2)c2cc3ccccc3nc21	n	16.4µM	n	n	n
CCn1nc(NC(=O)c2ccco2)c2cc3ccccc3nc21	n	n	n	n[1.84 µM]	n
CC(C)Cn1nc(NC(=O)c2ccco2)c2cc3ccccc3nc21	n	16.4µM	n	n	n
COc1ccc2nc3c(cc2c1)c(NC(=O)c1cccs1)nn3CC(C)C	n	x	n	n	n
c1nc(NCC2CCCO2)c2ccc(-c3ccc4c(c3)OCO4)cc2n1 (centres undefined)	x	u	x	n	x
CC[n+]1c(C=C2C=C(C)OC(C)=C2)sc2ccccc21	n	0.731µM	n	2.91µM	u
CC[n+]1c(/C=C(\C)SC)sc2ccccc21	n	20.6µM	n	n	n
CC[n+]1c(/C=C2/C=C(C)CC(C)C2)sc2ccccc21 (centres undefined)	n	u	n	n	n
CCOc1ccc(-n2nc(CO)c(C(=O)NCc3cccc(OC)c3)n2)cc1	x	u	n	n	n
COc1ccc(OC)c(C2=NS(=O)(=O)N(C)C(C(=O)Nc3ccc(F)cc3F)=C2)c1	n	14.6µM!	n	u	n
Cc1ccc(-n2nc3c([n+]2[O-])CCc2c-3no[n+]2[O-])cc1	n	n	2.24µM	u	n
[O-][n+]1onc2c1CCc1c-2nn(-c2ccccc2Cl)[n+]1[O-]	n	u	u	n	n
Nc1nc(Nc2ccccc2)nc(NCc2ccccc2)c1[N+](=O)[O-]	n	23.1µM	n	u	n
Nc1nc(NCc2ccccc2)nc(NCc2ccccc2)c1[N+](=O)[O-]	n	n	n	n	n
O=C(CNC(=O)c1ccccc1)NCC(=O)OCC(=O)c1ccc2ccccc2c1	x	n	x	n	x
CC(=O)N1CCN(Cc2nc3cc(NC(=O)COc4cccc(C)c4)ccc3n2C)CC1	n	23.1µM	n	n	n
Cn1c(CN2CCCCC2)nc2cc(NC(=O)c3ccc(F)cc3)ccc21	n	11.6µM	n	n	n
CCn1c(CN2CCOCC2)nc2cc(NC(=O)c3ccc([N+](=O)[O-])cc3)ccc21	x	9.2µM	n	n	n
CC(=O)N1CCN(Cc2nc3cc(NC(=O)c4ccc(Cl)cc4)ccc3n2C)CC1	n	10.3µM	n	n[1.84 µM]	n
CC(=O)N1CCN(Cc2nc3cc(NC(=O)c4ccccc4Cl)ccc3n2C)CC1	n	n	n	n	n
Cn1c(CN2CCCCC2)nc2cc(NC(=O)c3ccccc3Cl)ccc21	n	n	n	n	n
CC1=NN(C(N)=S)C(=O)C1N=Nc1ccccc1 (centres undefined)	1.41µM	u	n	n	n
CC1=NN(C(N)=S)C(=O)C1N=Nc1ccc(Cl)cc1 (centres undefined)	u	u	n	n	n
O=S(=O)(c1ccccc1)N1CCN(CC(O)COc2ccc3c(c2)CCC3)CC1 (centres undefined)	n	16.4µM	n	n	n
SMILES	B2AR arrestin	Nrf2 block	Nrf2 activator	A549 tox	miR-21 reporter
CCOC(=O)N1CCC(NS(=O)(=O)c2ccc(NC(C)=O)c(Cl)c2)CC1	n	11.6µM	n	n	n
Cn1c(NC(=O)/C=C/c2ccccc2)cc(=O)n(C)c1=O	n	u	7.08µM	n	n
Cc1cc(=O)c2cc(C(=O)Nc3ccccc3C)ccc2[nH]1	x	20.6µM	n	n	n
Cc1cccnc1Nc1nc(-c2ccccc2)cs1	n	u	3.16µM	n	n
Cc1cccnc1Nc1nc(-c2ccccn2)cs1	u	u	n	u	n
CC(C)(C)OC(=O)N1CCC(c2c(C(=O)NCc3cccc(Cl)c3)cnn2-c2ccc(F)cc2)CC1	x	n	n	n	u
Cc1ccc(NS(=O)(=O)c2cccc(C(=O)Nc3cccnc3)c2)c(C)c1	n	8.2µM	n	n	x
Cc1cc(C)cc(NC(=O)c2ccc(S(=O)(=O)NCc3cccnc3)cc2)c1	n	n	n	n	n
Cc1cccc(NC(=O)c2ccc(S(=O)(=O)NCc3cccnc3)cc2)c1	n	11.6µM	n	n	n
